We go through one substance from paper PMC3490489 (Clinical cancer research : an official journal of the …, 2012).

Values joined by “and” are separate entries in the source; they are usually repeats but may differ in a detail not shown here. Equal entries are not always repeated. Where two headings read alike, the source gives them in different places.

This data set is classed as in vivo, human.

In the case of sorafenib glucuronide, the “Mean sorafenib glucuronide metabolite ratio” value (all patients) is 0.30±0.19 and ~ 0.30. The “CV% of sorafenib glucuronide metabolite ratio” value reads like this: (boys older than 10 years) 42%; (boys ≤ 10 years) 71%; (girls older than 10 years) 28%; (girls ≤ 10 years) 70%.
